According to patent US11679103B2, “Multi-targeting agents for Alzheimer's disease therapy” (The Regents of the University of California, priority 2018, dated 2023):
Read-outs that look alike come from different tables or passages of the source.

Amino acid sequences for entries named in this document (tags omitted). Residues count along the entry.
UniProt P09483, 31-630: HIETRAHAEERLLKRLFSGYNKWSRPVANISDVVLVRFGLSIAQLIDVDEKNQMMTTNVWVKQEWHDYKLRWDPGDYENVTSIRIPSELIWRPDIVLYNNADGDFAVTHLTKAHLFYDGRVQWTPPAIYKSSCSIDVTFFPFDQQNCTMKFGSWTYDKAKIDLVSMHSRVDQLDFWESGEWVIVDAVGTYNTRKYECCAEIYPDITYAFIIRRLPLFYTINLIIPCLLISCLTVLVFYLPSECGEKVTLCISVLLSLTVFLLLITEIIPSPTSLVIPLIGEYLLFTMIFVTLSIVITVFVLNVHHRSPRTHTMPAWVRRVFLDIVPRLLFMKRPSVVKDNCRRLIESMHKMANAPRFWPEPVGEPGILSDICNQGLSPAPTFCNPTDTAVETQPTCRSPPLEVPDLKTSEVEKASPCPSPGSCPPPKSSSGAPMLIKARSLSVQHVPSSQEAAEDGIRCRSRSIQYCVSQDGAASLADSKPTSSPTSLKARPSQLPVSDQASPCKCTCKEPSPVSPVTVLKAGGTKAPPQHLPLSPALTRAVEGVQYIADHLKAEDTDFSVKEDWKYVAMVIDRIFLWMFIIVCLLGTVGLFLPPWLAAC
UniProt P12390, 25-500: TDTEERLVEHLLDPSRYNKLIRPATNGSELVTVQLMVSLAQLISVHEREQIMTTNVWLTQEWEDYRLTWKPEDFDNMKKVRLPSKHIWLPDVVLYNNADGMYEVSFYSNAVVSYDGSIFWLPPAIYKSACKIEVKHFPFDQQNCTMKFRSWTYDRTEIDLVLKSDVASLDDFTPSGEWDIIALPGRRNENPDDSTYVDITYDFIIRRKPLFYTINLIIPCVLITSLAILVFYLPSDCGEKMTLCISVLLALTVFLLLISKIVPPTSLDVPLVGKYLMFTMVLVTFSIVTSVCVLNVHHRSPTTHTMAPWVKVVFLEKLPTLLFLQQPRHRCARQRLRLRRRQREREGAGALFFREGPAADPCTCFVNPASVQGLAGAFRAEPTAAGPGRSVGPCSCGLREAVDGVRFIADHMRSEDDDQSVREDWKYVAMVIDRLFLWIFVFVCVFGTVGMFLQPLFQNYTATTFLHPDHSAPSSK

Target: α4β2* nAChRs (Rattus norvegicus, UniProt P09483+P12390)
Details: rat brain slices
Description: In Vitro Studies: Ex vivo rat brain slices were prepared at 10 μm thick using a Leica 1850 cryotome and used for [^3H]cytisine binding. […] The apposed phosphor screens were read and analyzed by OptiQuant acquisition and analysis program of the Cyclone Storage Phosphor System (Packard Instruments Co., Boston, Mass.). Region-of-interest of same size were drawn and analyzed on brain regions using OptiQuant software and binding of [^3H]cytisine measured in Digital Light Units/mm^2 (DLU/mm^2). Data was analyzed using following procedure: (a) the non-specific binding of [^3H]cytisine was subtracted for all samples; (b) the specific binding was normalized to 100% (no competitive ligand) and (c) the binding isotherms were fit to the Hill equation (KELL BioSoft software (v 6), Cambridge, U.K.).
Nicotinic receptor binding: The Aβ plaque-α4β2* nAChR multi-agents were tested for their affinity to the α4β2* nAChRs using rat brain slices labeled with [^3H]cytisine. […] Three brain regions analyzed included thalamus, frontal cortex and subiculum.

[1] = read-out: IC50 vs [3H]cytisine, frontal cortex, frontal cortex
[2] = read-out: IC50 vs [3H]cytisine, subiculum, subiculum
[3] = read-out: IC50 vs [3H]cytisine, thalamus, thalamus

Substance | IC50 [1] [nM] | IC50 [2] [nM] | IC50 [3] [nM]
5-(3-methoxy-4-propyloxycinnamate)-3-(2-(S)-pyrrolidinylmethoxy)pyridine [GKS-007] | 3.18 | 5.4 | 3.44
5-(3′-Ethyl 3-methoxy-4-propyloxycinnamate)-3-(2-(S)-pyrrolidinylmethoxy)pyridine [GKS-006] | 5.33 | 2.83 | 2.8
